Source: EP1781294B1, “COMPOSITION FOR IMPROVED BIOAVAILABILITY AND ENHANCED BRAIN DELIVERY OF 5,5-DIPHENYL […]” (priority 2004, dated 2006)

Assay: Pharmacokinetics of MMMDPB and DPB after oral MMMDPB or NaMMMDPB and intravenous NaMMMDPB
Parameters: species or system Beagle dogs
Conditions: dog, in vivo, analyte DPB
Experimental: In accordance with the present invention, pharmacokinetic parameters were calculated using standard non-compartmental methods, as implemented in WinNonlin™ 4.0.1. The mean, standard deviation (SD) and percent coefficient (CV (%)) of variations were calculated for plasma concentrations of MMMDPB and DPB for each sampling time and for each treatment. The mean, SD and CV (%) were used to calculate the AUC0-t (µg.h/mL), Cmax (µg/ml) (the maximum observed concentration), Tmax (hours) (the time to reach that peak concentration) and Kel (the elimination rate constant) for each animal and each analyte.
Areas under the concentration-time curves (AUC) were determined with respect to each animal that received oral administration of either NaDPB, NaMMMDPB or their free acid counterparts. AUC0-t was calculated using the linear trapezoidal rule, which employs an approximate integration formula. The area of each trapezoid was calculated, and the sum of all the areas of all the trapezoids yielded an estimate of the true area under the curve. (See, Gibaldi et al. Pharmacokinetics. 2nd Ed. Marcel Dekker, Inc., 1982; Yeh et al., A comparison of numerical integrating algorithms by trapezoidal, lagrange, and spline approximations. J. Pharmacokinet Biopharm. 6: 79 (1978), the disclosure of which is herein incorporated by reference.) Cmax and Tmax were then determined for each concentration vs. time profile. Elimination rate constant (Kel) was calculated using regression analyses on the natural log (In) of plasma concentration values (y) versus time (x).
This study compared the pharmacokinetics of MMDPB and DPB after oral administrations of MMDPB (30 mg/kg) and sodium salt of MMMDPB (30 mg/kg) in dogs. Oral suspensions of MMMDPB and sodium salt of MMDPB were prepared by suspending either MMMDPB or sodium salt of MMMDPB in 2 % (w/v) aqueous carobxymethyl cellulose (CMC). […]
Blood samples were obtained pre-dose and 0.25, 0.5, 1, 2, 3, 4, 6, 9, 12, 15, 18, and 24 hours after dosing. […] MMMDPB and DPB were quantified in plasma using HPLC with Tandem Mass Spectrometry detection (LLOQ=0.25 µg/mL). […]

| SMILES | half-life (Oral, 30 mg/kg) | half-life (iv, 15 mg/kg, IV infusion) | half-life (po, 30 mg/kg) |
| --- | --- | --- | --- |
| COCN1C(=O)NC(=O)C(c2ccccc2)(c2ccccc2)C1=O [MMMDPB, monomethoxymethyl-5,5-diphenyl barbituric acid] | 4.59 h |  |  |
| COCN1C(=O)NC(=O)C(c2ccccc2)(c2ccccc2)C1=O [NaMMMDPB, sodium monomethoxymethyl-5,5-diphenyt barbiturate] |  | 2.26 h | 3.15 h |
